Results as given in paper PMC7408095 (Pharmaceutics, 2020).

Assay: Plasma pharmacokinetics of metformin in rats (HPLC-UV)
Settings: IISOR+MET group vs VMET group

## CN(C)C(=N)N=C(N)N [metformin]
  influence of sorafenib on the exposure to metformin: did not statistically significantly influence; also recorded: did not significantly affect

Entries after “also recorded” stand apart in the source; their conditions may differ.
